Experimental data: US11179341B2, “Self-righting articles” (priority 2017, dated 2021)

Conditions: micropost tips 40% G6PD and 60% PEO 200 k, versus uncompressed powder
Procedure: To perform the activity assay on G6PD, an activity assay kit (Sigma Aldrich) was used which measures the amount of oxidized glucose-6-phosphate. […] Duplicate assays were performed on the dissolved solution.

Substance: glucose-6-phosphate dehydrogenase
- glucose-6-phosphate dehydrogenase activity after the manufacturing process: maintain their activity
